What was measured:
HLA-A*6802 (Human) = assay: competition vs 125I probe, purified HLA; conditions: remark: other sources report otherwise
HLA-A*0206 (Human) = assay: competition vs 125I probe, purified HLA; conditions: remark: other sources report otherwise
HLA-A*2401 (human) = assay: competition with 125I probe peptide, purified HLA class I

IC50 (HLA-A*2401 (human)) [µM]	Binder	further results
–	KMFBQLAKV (here or on the partner: B = alpha-amino butyric acid at position 4) [p53.132B4V9 KMFBQLAKV]	IC50 (HLA-A*6802 (Human)): 8.89 µM
–	ALNKMFCQLA [p53.129 … (10-mer)]	IC50 (HLA-A*0206 (Human)): 4.62 µM
0.0462	TYLWWVNNQSL [52.0144 … CEA.353]	–
0.0158	LYWVNGQSF [57.0042 … CEA.533.Y2F9]	–
0.0923	TYLWWVNGQSL [52.0147 … CEA.531]	–

From US20050196403A1
